Sequences of proteins named here, by UniProt entry; tags and fusion partners are left off.
UniProt P41143, whole entry: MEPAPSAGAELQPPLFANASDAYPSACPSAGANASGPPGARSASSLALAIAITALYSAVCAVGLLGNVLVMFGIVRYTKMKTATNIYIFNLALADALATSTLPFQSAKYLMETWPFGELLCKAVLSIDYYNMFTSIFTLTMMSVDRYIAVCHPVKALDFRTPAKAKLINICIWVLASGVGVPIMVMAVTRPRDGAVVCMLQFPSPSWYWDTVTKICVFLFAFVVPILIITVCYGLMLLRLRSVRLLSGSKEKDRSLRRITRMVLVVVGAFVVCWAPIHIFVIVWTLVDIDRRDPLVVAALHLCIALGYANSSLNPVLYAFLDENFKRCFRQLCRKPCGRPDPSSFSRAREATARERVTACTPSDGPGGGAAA

In patent EP1018008B1:

Target: human delta receptor (Homo sapiens, UniProt P41143)
Assay: human delta receptor binding assay (affinity)
Conditions: comparison of human delta and mu affinities

SMILES: COc1ccc(Oc2ccc([N+](=O)[O-])cc2C(=O)N2CCC(n3c(=O)[nH]c4ccccc43)CC2)cc1
- activity on the delta receptor relative to the mu receptor: more active on the delta receptor than on the mu receptor
